Molecular target: T1, GST–PPARα (ligand binding domain, TR-FRET) (Homo sapiens, UniProt Q07869)
T1 construct: gene PPARA
T1 sequence (Q07869 196-468 limits assumed): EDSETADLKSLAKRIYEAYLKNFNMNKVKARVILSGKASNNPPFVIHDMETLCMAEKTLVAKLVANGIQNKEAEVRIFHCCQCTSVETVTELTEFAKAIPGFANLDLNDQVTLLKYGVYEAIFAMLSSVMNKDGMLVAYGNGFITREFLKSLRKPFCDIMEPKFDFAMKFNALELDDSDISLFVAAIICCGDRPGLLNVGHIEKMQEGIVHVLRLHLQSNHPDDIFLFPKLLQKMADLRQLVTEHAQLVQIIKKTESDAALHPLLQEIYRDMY
Experiment: TR-FRET cofactor peptide recruitment

## Cc1oc(-c2ccccc2)nc1CCOc1ccc(C[C@H](Nc2ccccc2C(=O)c2ccccc2)C(=O)O)cc1 [Farglitazar]
  EC50: 479 nM

From publication PMC3504387 (Chemmedchem, 2012)
